Test results reported in PMC11005446 (European journal of pharmaceutical sciences : official …, 2021).

The chains behind the UniProt entries cited, without tags or fusion partners. Where a name states a change or a piece, a line headed by the entry shows the natural chain unless it says otherwise.
UniProt Q9NPD5: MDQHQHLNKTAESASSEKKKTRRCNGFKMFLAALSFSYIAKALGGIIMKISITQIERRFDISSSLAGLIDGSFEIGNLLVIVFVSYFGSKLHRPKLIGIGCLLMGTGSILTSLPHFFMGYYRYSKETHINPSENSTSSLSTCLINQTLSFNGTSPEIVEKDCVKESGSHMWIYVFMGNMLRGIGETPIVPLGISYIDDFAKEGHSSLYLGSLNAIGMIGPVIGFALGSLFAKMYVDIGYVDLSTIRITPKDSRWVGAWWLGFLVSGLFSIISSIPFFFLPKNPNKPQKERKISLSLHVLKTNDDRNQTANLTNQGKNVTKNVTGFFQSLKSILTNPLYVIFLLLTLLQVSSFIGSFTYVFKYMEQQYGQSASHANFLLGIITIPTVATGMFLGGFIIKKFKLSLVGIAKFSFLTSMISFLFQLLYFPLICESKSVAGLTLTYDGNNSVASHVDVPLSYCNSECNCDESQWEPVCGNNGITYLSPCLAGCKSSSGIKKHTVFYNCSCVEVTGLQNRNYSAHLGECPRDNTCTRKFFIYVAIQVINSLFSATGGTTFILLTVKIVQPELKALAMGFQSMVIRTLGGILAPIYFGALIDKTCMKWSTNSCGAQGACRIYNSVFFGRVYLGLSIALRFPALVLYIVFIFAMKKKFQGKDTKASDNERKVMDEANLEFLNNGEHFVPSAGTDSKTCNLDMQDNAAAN

Target: OATP1B3 (Homo sapiens, UniProt Q9NPD5)
Assay: Inhibition of [3H]CCK-8 accumulation in human SCH
Format: in vitro ADME
Details: for Co-Incubation R / Pre+Co-Incubation R: Hepatocytes, substrate CCK-8, R-value model; for accumulation of [3H]CCK-8 after inhibitor pre-incubation: human SCH, washing

Compound	Co-Incubation R	Pre+Co-Incubation R	accumulation of [3H]CCK-8 after inhibitor pre-incubation (1 h pre-incubation at 0.2 μM, model estimate ± SE)	accumulation of [3H]CCK-8 after inhibitor pre-incubation (1 h pre-incubation at 0.5 μM, model estimate ± SE)	accumulation of [3H]CCK-8 after inhibitor pre-incubation (1 h pre-incubation at 0.6 μM) [fold vs. CTL]
CO[C@H]1C[C@@H]2CC[C@@H](C)[C@@](O)(O2)C(=O)C(=O)N2CCCC[C@H]2C(=O)O[C@H]([C@H](C)C[C@@H]2CC[C@@H](OCCO)[C@H](OC)C2)CC(=O)[C@H](C)/C=C(\C)[C@@H](O)[C@@H](OC)C(=O)[C@H](C)C[C@H](C)/C=C/C=C/C=C/1C [EVR, everolimus]	1.02 (1.02–1.03)	1.08 (1.06–1.10)	0.83 ± 0.05 fold of CTL	0.65 ± 0.06 fold of CTL	–
CO[C@H]1C[C@@H]2CC[C@@H](C)[C@@](O)(O2)C(=O)C(=O)N2CCCC[C@H]2C(=O)O[C@H]([C@H](C)C[C@@H]2CC[C@@H](O)[C@H](OC)C2)CC(=O)[C@H](C)/C=C(\C)[C@@H](O)[C@@H](OC)C(=O)[C@H](C)C[C@H](C)/C=C/C=C/C=C/1C [SIR, sirolimus]	1.00 (1.00–1.00)	1.01 (1.00–1.01)	–	–	0.68 ± 0.07
